Reference: patent US20040018528A1, “Novel biomarkers of tyrosine kinase inhibitor exposure and activity in mammals” (Sugen, Inc., priority 2002, published 2004)

System: soluble VEGFR2
Conditions: Trials A, B and C; chronic time points (13 days or more) after start of treatment

For `CCN(CC)CCNC(=O)c1c(C)[nH]c(C=C2C(=O)Nc3ccc(F)cc32)c1C` [Compound 1, 5-(5-Fluoro-2-oxo-1,2-dihydro-indol-3-ylidenemethyl)-2,4-dimethyl-1H-pyrrole-3-carboxylic acid (2-diethylamino-ethyl)-amide], which “patients with decrease of plasma soluble VEGFR2” value is on record?
Its value is “greater than 90%”.
